The numbers were not newly measured in PubChem BioAssay AID493017, which cites them from elsewhere.

The structures appear in SMILES notation.

Assay in all cases: PubChem AID 493017
One data set has as its target KCNJ5. To be noted: WOMBAT literature affinities, multiple human targets; K(+) channel; gene KCNJ5; NCBI gene 3762.
The next data set has as its target EDNRA. The settings on record: WOMBAT literature affinities, multiple human targets; ET-A; gene EDNRA; NCBI gene 1909.
A further data set addresses TRPV1. To be noted: WOMBAT literature affinities, multiple human targets; binding affinity Ki; VR1; gene TRPV1; NCBI gene 7442.

`CN(C1c2cc(OCCCC(F)(F)F)ccc2OC(C)(C)C1O)S(C)(=O)=O` (stereo not drawn): the IC50 (commonly the concentration that gives 50% inhibition) on KCNJ5 was 12.6 µM.

In the case of `CCC(C)C(NC(=O)C(Cc1ccccc1)NC(C)=O)C(=O)NC(Cc1c[nH]c2ccccc12)C(=O)O` (stereo not drawn), at EDNRA, the concentration for half-maximal inhibition (IC50) is 8 µM.

For the compound `Oc1cc2c(cc1O)CN(C(=S)NCCc1ccc(Cl)cc1)CCC2`, the Ki (usually a dissociation constant, usually derived from enzyme kinetics or from competition with a known ligand) on TRPV1 is 1.3 µM.
